The test system of one experiment is ERRα. Kind of experiment: Immunoblot analysis of ERRα expression in ERRα-transfected BT-474 cells. In kind it is cell-based, human. The note with it: BT-474 cells transfected with ERRα, 48 h; 20 μg/ml trastuzumab, 1 μM gefitinib, 20 μM U0126 or 20 μM LY294002. Here is the method: BT-474 cells were co-transfected in parallel with the ERE(5x)-regulated and TATA dual-luciferase reporter gene sets along with the indicated expression plasmids. […] In panel (B), the cells were incubated for 48 h in estrogen-free medium supplemented with dimethyl sulfoxide as the drug vehicle control, 20 μM U0126 (MEK inhibitor), or 20 μM LY294002 (PI3K inhibitor) as indicated. After incubation for 48 h, the cells were harvested for dual-luciferase assays. Data were analyzed as described in the legend to FIG. 2. (C) Immunoblot analysis of protein extracts (20 μg per sample) prepared from BT-474 cells treated as in panels A and B above for luciferase activity. The membrane was probed with antibodies that react specifically with ERRα. Reactive proteins were visualized by enhanced chemiluminescence and autoradiography. […]
Proteins were extracted in Cell Lysis Buffer (Cell Signaling Technology, Beverly, Mass.) supplemented with Protease Inhibitor Cocktail Set III and Phosphatase Inhibitor Cocktail Set II (Calbiochem). Protein amounts were quantified with Coomassie Protein Assay Reagent (Pierce Biotechnology) with BSA as the standard. […] Reacting material was detected using horseradish peroxidase-conjugated secondary antibodies (Jackson ImmunoResearch Laboratories, West Grove, Pa.) together with enhanced chemiluminescence (Amersham Pharmacia) and autoradiography.
For orientation: In western blotting, separated proteins are transferred to a membrane and probed.

For experiment [1], the system named is MCF-7 cells. Kind of experiment: 7 day growth assay, DNA content per well, MCF-7 cells. The note with it: trastuzumab, 7 days.
Experiment [2] has as its system MCF-7 cells. The note with it: literature statement; cited from earlier work.
The test system of experiment [3] is ERRα1-mediated constitutive activation of ERE-regulated transcription in BT-474 cells. Kind of experiment: Transient transfection dual-luciferase assay of ERRα1-mediated ERE-regulated transcription in BT-474 cells. The note with it: 20 μg/ml trastuzumab, 48 h, estrogen-free medium, BT-474 cells over-expressing ERRα1. Type of experiment: cell-based, human. On the procedure:
BT-474 cells were co-transfected in parallel with the ERE(5x)-regulated and TATA dual-luciferase reporter gene sets along with the indicated expression plasmids. […] In panel (B), the cells were incubated for 48 h in estrogen-free medium supplemented with dimethyl sulfoxide as the drug vehicle control, 20 μM U0126 (MEK inhibitor), or 20 μM LY294002 (PI3K inhibitor) as indicated. After incubation for 48 h, the cells were harvested for dual-luciferase assays. Data were analyzed as described in the legend to FIG. 2. (C) Immunoblot analysis of protein extracts (20 μg per sample) prepared from BT-474 cells treated as in panels A and B above for luciferase activity. The membrane was probed with antibodies that react specifically with ERRα. Reactive proteins were visualized by enhanced chemiluminescence and autoradiography. (D) Immunoblot analysis as in panel C above, only the membrane was probed with antibodies that react specifically with phosphorylated Akt (p-Akt), total Akt, phosphorylated MAPK (p-MAPK) or total MAPK.

The test system of the next experiment is BT-474 cells. The note with it: literature statement; cited from earlier work.

Regarding trastuzumab, the “ERRα expression (immunoblot)” value with ERRα is “expression was maintained”. Further, the “effect on growth of MCF-7 cells” value in the experiment with MCF-7 cells [1] was “did not significantly block growth”. Besides, the “effect on growth of MCF-7 cells (known, ref. 35)” value in the experiment with MCF-7 cells [2] is given as “affect only minimally the growth”. The “inhibition of ERRα1's activity” value in experiment [3] is “approximately 85%”. Further, the “effect on growth of BT-474 cells (known, ref. 26)” value with BT-474 cells was “significantly inhibit the growth”.

Values taken from US20050118658A1, “Use of ERRalpha phosphorylation status as a breast cancer biomarker” (priority 2003, published 2005).
